# Assay results taken from patent publication US11555013B2, “Potent and selective inhibitors of monoamine transporters; method of making; and use thereof” (priority 2013, dated 2023).
# Test system: Swiss Webster mice
# Test: Mouse locomotor activity test
# Conditions: in vivo
compound,measurement,value
"COC(=O)[C@H]1[C@@H](OC(=O)c2ccccc2)C[C@@H]2CC[C@H]1N2C [cocaine, reference compound]","locomotor stimulation (ambulatory distance, FIG. 2)",locomotor stimulation
